The target in the test is RheoSwitch® (CHO-K1_RS-1 cells, firefly Luciferase reporter) (Choristoneura fumiferana, UniProt O77240). The experiment in a line: in vitro gene switch assay (fLUC Luciferase expression, potency screen). The class given is cell-based. The settings on record: read-out: fLUC assay EC50, 24 hours with compound, 25 μM to 2.5 pM, figure in parentheses after a value not defined. The protocol: Representative Compounds of the Disclosure were tested for biological activity in an in vitro gene switch assay (Tables 1 and 1A). Gene switch assays are disclosed, e.g., in U.S. Pat. Nos. 8,076,517; 7,456,315; 7,304,161; and 6,258,603.
CHO-K1 cells were stably transfected with a plasmid (RS-1, FIG. 1) coding for firefly Luciferase (fLUC) under the control of the RheoSwitch® resulting in the stable cell line CHO-K1_RS-1. A master cell bank was created containing approximately 100 vials at 5×10^6 cells per vial. One vial of CHO-K1_RS-1 was thawed and cultured for two weeks prior to each in vitro potency screening.
Twenty-four (24) hours prior to treatment with the control and test compounds the CHO-K1_RS-1 cells were seeded into white-opaque 384-well cell culture plates at 3,600 cells per well in 30 μl of culture medium. The cells were incubated in a humidified CO2 incubator at 37° C. until compound treatment.
Compounds were prepared at 25 mM in 100% dry DMSO and stored at room temperature in sealed 1 ml tubes prior to subsequent dilution and assay. […]
The cells were incubated with the compound for 24 hours in a humidified CO2 incubator at 37° C. […] The reagent was incubated with the cells for 10-120 minutes prior to reading on a Molecular Devices Spectramax L luminometer. […]

Amino acid sequences for entries named in this document (tags omitted). Residues count along the entry.
UniProt O77240, 1-513: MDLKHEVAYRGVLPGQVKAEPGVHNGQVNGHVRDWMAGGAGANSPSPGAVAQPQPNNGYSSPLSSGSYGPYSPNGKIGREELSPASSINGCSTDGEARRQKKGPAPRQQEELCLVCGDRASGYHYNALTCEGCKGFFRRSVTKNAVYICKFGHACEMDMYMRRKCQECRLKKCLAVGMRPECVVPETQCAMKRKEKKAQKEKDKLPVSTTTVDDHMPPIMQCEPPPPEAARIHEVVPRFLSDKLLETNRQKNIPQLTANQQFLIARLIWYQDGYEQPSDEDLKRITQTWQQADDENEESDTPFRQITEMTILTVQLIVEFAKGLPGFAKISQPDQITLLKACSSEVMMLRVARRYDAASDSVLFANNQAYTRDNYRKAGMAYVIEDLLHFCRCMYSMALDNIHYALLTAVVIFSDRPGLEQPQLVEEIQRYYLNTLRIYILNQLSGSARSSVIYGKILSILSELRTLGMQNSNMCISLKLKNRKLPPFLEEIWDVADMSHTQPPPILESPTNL

Each structure is given as a SMILES string.

Consider two molecules from patent publication US9127024B2 (Intrexon Corporation, priority 2013, dated 2015).

In general, EC50 refers to the midpoint of the concentration-response curve.

With `Cc1cc(C)cc(C(=O)N(NC(=O)c2ccc3c(c2C)OCCOB3O)C(C)(C)C(C)C)c1`, the EC50 worked out at 222 nM.

With `[2H]C([2H])([2H])c1cc(C(=O)N(NC(=O)c2ccc3c(c2F)B(O)OC3)[C@@H](CC)C(C)(C)C)cc(C([2H])([2H])[2H])c1`, the EC50 came to 803 nM.
